“And” between values parts separate entries of the source, which are not always exact repeats. Equal values may be shown once. The source made the active and inactive calls. The calls are words filed in the database; no cut-off is given here.
Assays:
[1] = Induction of alkylation of piperidine after 3 hrs by UV-vis spectroscopy analysis relative to control
[2] = Induction of alkylation of benzyl alcohol after 3 hrs by UV-vis spectroscopy analysis relative to control
[3] = Induction of alkylation of 4-methylbenzenethiol after 3 hrs by UV-vis spectroscopy analysis relative to control
[4] = Induction of alkylation of phosphonate model assessed as methylphosphonic acid formation by 31P NMR spectroscopy analysis
[5] = Induction of alkylation of phosphonate model assessed as 4-nitrophenyl hydrogen methylphosphonate formation by 31P NMR spectroscopy analysis
[6] = Induction of alkylation of phosphonate model in water assessed as 4-nitrophenol formation at 100 degC after 3 hrs by tandem HPLC/ESI-MSTOF analysis
[7] = Induction of alkylation of phosphonate model assessed as 4-hydroxy-3-methoxybenzyl hydrogen methylphosphonate formation by 31P NMR spectroscopy analysis
[8] = Induction of alkylation of phosphonate model assessed as 4-hydroxy-3-methoxybenzyl 4-nitrophenyl methylphosphonate formation by 31P NMR spectroscopy analysis
[9] = Induction of alkylation of phosphonate model in water assessed as 4-(hydroxymethyl)-2-methoxyphenol formation at 100 degC after 3 hrs by tandem HPLC/ESI-MSTOF analysis
[10] = Induction of alkylation of phosphonate model in water assessed as 4-nitrophenyl hydrogen methylphosphonate formation at 100 degC after 3 hrs by tandem HPLC/ESI-MSTOF analysis
[11] = Induction of alkylation of phosphonate model in water assessed as 4-hydroxy-3-methoxybenzyl hydrogen methylphosphonate formation at 100 degC after 3 hrs by tandem HPLC/ESI-MSTOF analysis
[12] = Induction of alkylation of phosphonate model in water assessed as 4-hydroxy-3-methoxybenzyl 4-nitrophenyl methylphosphonate formation at 100 degC after 3 hrs by tandem HPLC/ESI-MSTOF analysis
[13] = Induction of alkylation of pyrrolidine after 3 hrs by UV-vis spectroscopy analysis

| Structure (SMILES) | Activity [1] | Activity [2] | Activity [3] | Activity [4] [ppm] | Activity [5] [ppm] | Activity [6] | Activity [7] | Activity [8] | Activity [9] | Activity [10] | Activity [11] | Activity [12] | Activity [13] [%] |
| --- | --- | --- | --- | --- | --- | --- | --- | --- | --- | --- | --- | --- | --- |
| COc1cc(CN2CCCC2)ccc1O | 78% and 77% | 12% and 8% | 83% and 87% | – | – | – | – | – | – | – | – | – | – |
| COc1cc(CN2CCOCC2)ccc1O | 69% and 79% | 16% and 13% | 84% and 83% | – | – | – | – | – | – | – | – | – | – |
| COc1cc(CN(C)C)ccc1O | 78% and 80% | 8% and 0% | 83% and 84% | 20.6 | 25.1 | Active | Active | Active | Active | Active | Active | Active | – |
| COc1cc(CN2CCCCC2)ccc1O | – | 10% and 11% | 85% and 83% | – | – | – | – | – | – | – | – | – | 81 |

Source: ChEMBL document CHEMBL4033753, “Study of para-Quinone Methide Precursors toward the Realkylation of Aged Acetylcholinesterase” (2017)
